Antibody variant affinities, Ab-14 light chain, assay 1

Target: peptide PDVDLGDISGINAS, taken from heptad repeat 2 (HR2) of SARS-CoV-2 spike.

Ab-14 is the parent antibody, in scFv form: VH, then the linker GGGGSGGGGSGGGGS, then VL. The heavy chain is unchanged in all variants.
VH: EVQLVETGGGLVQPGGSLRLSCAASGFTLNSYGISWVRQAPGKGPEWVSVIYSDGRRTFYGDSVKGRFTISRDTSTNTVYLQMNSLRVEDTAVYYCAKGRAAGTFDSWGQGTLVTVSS
VL: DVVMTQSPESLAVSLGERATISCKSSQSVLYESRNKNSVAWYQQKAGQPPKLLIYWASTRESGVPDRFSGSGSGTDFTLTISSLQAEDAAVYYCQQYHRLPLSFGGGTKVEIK

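Phage display of a naive human antibody library on the peptide gave the parent. The library (AAYL50) carries one to three amino acid substitutions per variant, with no insertions or deletions. The assay is AlphaSeq: two haploid yeast populations carry antibody and antigen on their surface. Pairs that bind mate more often; barcode pairs of the diploids are counted by sequencing. A regression on co-assayed BCL2-family reference pairs converts the normalised counts of each replicate to an apparent Kd. There are three technical replicates.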

Substitutions are numbered in sequence along the VL above, starting at 1 (not Kabat). This list gathers variants with a substitution at K24 (VL, numbered from residue 1). Each Kd is an estimate from the mating assay, the geometric mean of the replicates in which the pair was seen; lower is stronger. A pair that was not seen in any replicate is written "nd"; this usually means weak binding, but a binder can also be missed.

The variant K24F/S28E/P101S showed 35 nM (3 of 3 replicates). For K24Q/V29H/V39G, the assay gave 3.6 µM (3 of 3 replicates). With K24Q/W56N/R99G the result was 3.1 nM (3 of 3 replicates). The variant K24M/K36L/R99A gave 47 nM (3 of 3 replicates). For K24C/V39H/L102E, the assay gave nd (0 of 3 replicates). For K24Q/S25R/Q96P, the assay gave 6.5 µM (3 of 3 replicates).

With K24R/V29G/T59G the result was 220 nM (2 of 3 replicates). With K24Y/W56M/S103V the result was 11 nM (3 of 3 replicates). With K24R/Q96H the result was 1.1 µM (3 of 3 replicates). The variant K24Q/K36T/Q95A gave 68 nM (3 of 3 replicates). With K24R/N37K the result was 56 nM (3 of 3 replicates). With K24P/T59Y/S62G the result was nd (0 of 3 replicates).

For K24Y/V29I/E61D, the assay gave 55 nM (3 of 3 replicates). The variant K24M showed 39 nM (3 of 3 replicates). With K24H/S38C/R60V the result was 3.1 µM (3 of 3 replicates). For K24A/Q27L/N37T, the assay gave nd (0 of 3 replicates). With K24I/E32I the result was nd (0 of 3 replicates). With K24Q/R60H/S103D the result was 7.7 µM (1 of 3 replicates).

With K24T/K36G the result was 31 nM (3 of 3 replicates). With K24G/Q95S the result was 9.5 µM (3 of 3 replicates). The variant K24G/S33C/K36P showed 51 µM (2 of 3 replicates). The variant K24A/S25N/S103P gave 290 µM (3 of 3 replicates). With K24L/N35S/V39T the result was 7.8 µM (1 of 3 replicates). The variant K24P/R34W/K36W showed nd (0 of 3 replicates).

The variant K24R/L30I/N35R showed 1.1 µM (3 of 3 replicates). The variant K24Y/K36A/N37L gave 5.4 µM (3 of 3 replicates). For K24F/V29A/R60F, the assay gave 680 nM (1 of 3 replicates). The variant K24C showed 110 nM (3 of 3 replicates). The variant K24C/W56Q/R60N showed 170 µM (1 of 3 replicates). The variant K24E/R60P/S62C showed 600 nM (3 of 3 replicates).

For K24T/V39R/S58Q, the assay gave 4.6 mM (1 of 3 replicates). The variant K24D/R34K/L100H gave nd (0 of 3 replicates). The variant K24T/S33A showed 42 nM (3 of 3 replicates). For K24A/A57D, the assay gave 110 µM (1 of 3 replicates). The variant K24A/S26E/L100M showed 7.9 nM (3 of 3 replicates). The variant K24V/Q27F/H98G gave 46 nM (3 of 3 replicates).

The variant K24G/S62T/L102W showed 330 nM (3 of 3 replicates).

2 of these entries, quoted again:

{"changes": "K24P/R34W/K36W", "apparent Kd": "nd", "replicates with signal": "0/3"}
{"changes": "K24T/K36G", "apparent Kd": "31 nM", "replicates with signal": "3/3"}

Three control strains display no target. For library AAYL50, 18% of the pairings with them gave a signal, with a median of 15 µM and one signal in twenty below 970 nM, so weak values seen in few replicates may be background.

From the AlphaSeq antibody data of Engelhart et al. 2022 (doi:10.1038/s41597-022-01779-4), copy in the FLAb collection.